In PMC6657668, “Porcine Beta-Defensin 2 Provides Protection Against Bacterial Infection by a Direct Bactericidal Activity and Alleviates Inflammation via Interference With the TLR4/NF-κB Pathway” (Frontiers in Immunology, 2019):

System: S. Typhimurium
Assay: Bactericidal activity assay (colony counting)
Details: synthetic PBD-2, 50 μg/ml, heat-treated 56°C 20 min; 5000 CFU; 10 mM phosphate pH 7.0 with 1/100 TSB; 1 h, 37°C

CC[C@H](C)[C@H](NC(=O)[C@@H]1CSSC[C@@H]2NC(=O)[C@@H]3CCCN3C(=O)[C@H](CO)NC(=O)[C@H](Cc3ccccc3)NC(=O)[C@H](CC(N)=O)NC(=O)[C@@H]3CSSC[C@H](NC(=O)[C@H]([C@@H](C)O)NC(=O)CNC(=O)[C@H](CCC(=O)O)NC(=O)[C@H]([C@@H](C)CC)NC(=O)[C@H](CCCNC(=N)N)NC(=O)[C@H](CC(N)=O)NC(=O)[C@H](Cc4ccccc4)NC(=O)[C@H](CC(C)C)NC(=O)[C@@H]4CCCN4C2=O)C(=O)N[C@@H](Cc2ccc(O)cc2)C(=O)N[C@@H](CO)C(=O)NCC(=O)N[C@@H](CCCCN)C(=O)N[C@@H](C)C(=O)N[C@@H](CCCCN)C(=O)N[C@@H](CSSC[C@H](NC(=O)[C@@H](NC(=O)[C@H](Cc2ccc(O)cc2)NC(=O)[C@H](Cc2c[nH]cn2)NC(=O)[C@@H](N)CC(=O)O)[C@@H](C)CC)C(=O)N[C@@H](C)C(=O)N[C@@H](CCCCN)C(=O)N[C@@H](CCCCN)C(=O)NCC(=O)NCC(=O)N[C@@H]([C@@H](C)O)C(=O)N3)C(=O)N1)C(=O)N[C@@H](CCCNC(=N)N)C(=O)O [PBD-2, Porcine beta-defensin 2] (HELM PEPTIDE1{D.H.Y.I.C.A.K.K.G.G.T.C.N.F.S.P.C.P.L.F.N.R.I.E.G.T.C.Y.S.G.K.A.K.C.C.I.R}$PEPTIDE1,PEPTIDE1,5:R3-34:R3|PEPTIDE1,PEPTIDE1,12:R3-27:R3|PEPTIDE1,PEPTIDE1,17:R3-35:R3$$$V2.0; N-terminus and C-terminus assumed)
bacterial killing effect: elicited a bacterial killing effect against S. Typhimurium

Where a SMILES comes first, the peptide text is derived from it.
